Test system: cardiomyocytic cell line derived from human ventricular heart tissue
Experiment: Small molecule compound screen of gigasome production in cardiomyocytic monocultures;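 note: gigasomes shed into the culture medium were imaged by confocal microscopy and counted as round particles lacking nuclear signal, extrapolated to the whole well, fold change is relative to DMSO vehicle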
Conditions: cardiomyocytes

SMILES: CC(N)=NCc1cccc(CN)c1.Cl.Cl [1400W dihydrochloride]
- Fold Change of Gigasomes Produced vs. DMSO (Table 22, dose 10 nM, 24 hours): 1.25-1.5
- Fold Change of Gigasomes Produced vs. DMSO (Table 23 (down-regulators), dose 10 nM): 1.25-1.5
- Fold Change of Gigasomes Produced vs. DMSO (Table 23 (down-regulators), dose 100 nM): 0.75-1.0
- Fold Change of Gigasomes Produced vs. DMSO (Table 23 (down-regulators), dose 1000 nM): 0.75-1.0
- Fold Change of Gigasomes Produced vs. DMSO (Table 23 (down-regulators), dose 10000 nM): 0.5-0.75

Reference: patent publication US20240400986A1, “MEMBRANE BOUND COMPOSITIONS AND METHODS RELATING TO SAME” (FLAGSHIP PIONEERING INNOVATIONS VII, LLC, priority 2021, published 2024)
